Experimental data: ChEMBL document CHEMBL4152346, “Sulfonamido-2-arylbenzoxazole GroEL/ES Inhibitors as Potent Antibacterials against Methicillin-Resistant Staphylococcus aureus (MRSA)” (J Med Chem, 2018)

By UniProt entry, the sequences of proteins in these tests, tags left out.
UniProt P0A6F5, whole entry, looked up: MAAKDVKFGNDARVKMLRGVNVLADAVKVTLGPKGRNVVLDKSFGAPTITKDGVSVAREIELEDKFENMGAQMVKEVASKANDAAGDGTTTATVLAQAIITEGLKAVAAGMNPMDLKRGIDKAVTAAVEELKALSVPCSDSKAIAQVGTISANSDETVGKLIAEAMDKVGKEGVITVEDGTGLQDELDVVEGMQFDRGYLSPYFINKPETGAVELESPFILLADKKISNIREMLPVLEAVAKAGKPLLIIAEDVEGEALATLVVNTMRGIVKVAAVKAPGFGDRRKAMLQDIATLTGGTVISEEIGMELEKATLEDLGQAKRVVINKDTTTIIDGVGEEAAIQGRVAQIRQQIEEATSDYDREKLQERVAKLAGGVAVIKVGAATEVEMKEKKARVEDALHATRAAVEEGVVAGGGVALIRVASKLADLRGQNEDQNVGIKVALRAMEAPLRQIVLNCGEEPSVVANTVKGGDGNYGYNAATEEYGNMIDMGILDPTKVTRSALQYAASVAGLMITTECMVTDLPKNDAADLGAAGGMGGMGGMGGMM
UniProt P10809, whole entry: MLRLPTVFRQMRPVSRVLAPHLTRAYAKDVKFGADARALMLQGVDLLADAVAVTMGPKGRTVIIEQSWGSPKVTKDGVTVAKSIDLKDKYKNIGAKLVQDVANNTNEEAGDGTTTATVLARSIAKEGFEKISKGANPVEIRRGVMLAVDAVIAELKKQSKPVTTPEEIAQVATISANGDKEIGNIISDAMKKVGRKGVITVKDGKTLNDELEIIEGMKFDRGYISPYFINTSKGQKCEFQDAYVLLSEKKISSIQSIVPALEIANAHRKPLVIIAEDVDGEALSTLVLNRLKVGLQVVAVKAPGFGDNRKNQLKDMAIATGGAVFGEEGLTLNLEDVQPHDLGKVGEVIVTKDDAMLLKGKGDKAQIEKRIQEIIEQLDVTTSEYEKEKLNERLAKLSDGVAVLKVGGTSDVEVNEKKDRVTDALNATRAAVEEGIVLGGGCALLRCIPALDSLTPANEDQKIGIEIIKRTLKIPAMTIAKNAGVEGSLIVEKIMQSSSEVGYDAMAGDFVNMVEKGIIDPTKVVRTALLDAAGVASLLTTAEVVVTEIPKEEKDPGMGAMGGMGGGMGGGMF

Columns and labels:
[1] = biological target: T1, E. coli GroEL/ES (Escherichia coli, UniProt P0A6F5); test: Inhibition of Escherichia coli GroEL expressed in Escherichia coliDH5alpha/Escherichia coli GroES expressed in Escherichia coli BL21 (DE3) assessed as reduction in GroEL/GroES-mediated denatured MDH refolding by measuring MDH enzyme activity using sodium mesoxalate as substrate after 20 to 40 mins by spectrometric analysis
Summary of the method: (§1)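 Coupled refolding assay: denatured rhodanese or MDH refolded by GroEL/ES (50 nM GroEL tetradecamer, 700 nM subunits), read-out via enzymatic activity of refolded substrate; counter-screened against native enzyme activity. IC₅₀ as back-calculated mean of log-transformed replicate values.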

[2] = biological target: T1, E. coli GroEL/ES; test: Inhibition of Escherichia coli GroEL expressed in Escherichia coli DH5alpha/Escherichia coli GroES expressed in Escherichia coli BL21 (DE3) assessed as reduction in GroEL/GroES-mediated denatured rhodanese refolding by measuring rhodanese enzyme activity after 45 mins by spectrometric analysis; summary of the method: as §1
[3] = biological target: HSP60/HSP10 (Homo sapiens, UniProt P10809); test: Inhibition of human N-terminal octa-His-tagged HSP60 expressed in Escherichia coli Rosetta(DE3) pLysS/human HSP10 expressed in Escherichia coli Rosetta(DE3) assessed as reduction in HSP60/HSP10-mediated denatured MDH refolding by measuring MDH enzyme activity using sodium mesoxalate as substrate after 40 to 60 mins by spectrometric analysis
Summary of the method: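 Chaperonin-mediated refolding of denatured MDH, coupled to MDH enzymatic activity as the reporter. Human HSP60/10 (HSP60 without its 26-residue mitochondrial signal peptide) or E. coli GroEL/ES was used, with GroEL tetradecamer at 50 nM (700 nM subunits) during the refolding cycle. IC50s from replicate dose-response curves were averaged as logs after ROUT outlier removal.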

Structure (SMILES) | IC50 [1] [µM] | IC50 [2] [µM] | IC50 [3] [µM]
O=S(=O)(Nc1ccc(-c2nc3cc(NS(=O)(=O)c4ccc(Cl)s4)ccc3o2)cc1)c1ccc(Cl)c(C(F)(F)F)c1 | 2.6 | 7.3 | –
O=S(=O)(Nc1ccc(-c2nc3cc(NS(=O)(=O)c4ccc(Cl)s4)ccc3o2)cc1)c1ccc(Cl)s1 | 2.4 | – | –
O=S(=O)(Nc1ccc(-c2nc3cc(NS(=O)(=O)c4cccc(C(F)(F)F)c4)ccc3o2)cc1)c1cccc(C(F)(F)F)c1 | 11 | – | –
O=[N+]([O-])c1ccc(S(=O)(=O)Nc2ccc(-c3nc4cc(NS(=O)(=O)c5ccc([N+](=O)[O-])cc5)ccc4o3)cc2)cc1 | 24 | 22 | –
NCc1ccc(S(=O)(=O)Nc2ccc3oc(-c4ccc(NS(=O)(=O)c5ccc(Cl)s5)cc4)nc3c2)cc1 | – | 11 | –
O=S(=O)(Nc1ccc2oc(-c3ccc(NS(=O)(=O)c4cccc5nonc45)cc3)nc2c1)c1ccc(Cl)s1 | – | 19 | –
O=S(=O)(Nc1ccc2oc(-c3ccc(NS(=O)(=O)c4ccc(Cl)s4)cc3)nc2c1)c1ccc(Cl)c(C(F)(F)F)c1 | 5.2 | 11 | –
O=S(=O)(Nc1ccc(-c2nc3cc(NS(=O)(=O)c4ccc(Cl)s4)ccc3o2)cc1)c1cccc(C(F)(F)F)c1 | 2.2 | 4.5 | 4.5
O=[N+]([O-])c1cc(S(=O)(=O)Nc2ccc3oc(-c4ccc(NS(=O)(=O)c5ccc(Cl)s5)cc4)nc3c2)ccc1Cl | 1.1 | – | –
O=S(=O)(Nc1ccc2oc(-c3ccc(NS(=O)(=O)c4ccc(Cl)s4)cc3)nc2c1)c1cccc(C(F)(F)F)c1 | – | 11 | –
O=S(=O)(Nc1ccc(-c2nc3cc(NS(=O)(=O)c4ccc(Cl)cc4)ccc3o2)cc1)c1ccc(Cl)cc1 | 15 | 29 | –
